Data set [1] in a line: Solubility in water (comparative data and examples). Type of data set: physicochemical. To be noted: water at the same temperature (20-25° C.).
The conditions of data set [2]: water at 20° C.; literature value (index Merck Ref. 1675; F.C.C. IV Ed. Page 153); cited from earlier work.

Consider 1 substance from patent US20030049284A1, “Method of increasing the solubility of alphahydrocarboxilic salts, and products obtained by the method” (priority 2001, published 2003).

For Calcium gluconate, the “limited solubility in water” value in data set [1] is 30-80 gr./l. Further, in data set [2], the solubility in water was 30 gr/1000 ml.
